For part of these data: The hits were mostly taken out for another list; the other results follow. Records with an inconclusive call do not appear. The list shows a part of the results, in another mix than the full data. Calls of active or inactive are those of the source. Unless noted, calls come from the whole dose curve; as a rule, active = well fitted curve in the direction sought with a large enough effect; inconclusive = small, poorly fitted or top-dose-only effect, or another doubt; inactive = no such curve, though single readings can be large; an effect the other way counts as inactive or inconclusive.
Experiments:
[1] = target: Cytochrome P450 1A2 (Homo sapiens) (UniProt P05177); experiment: p450-cyp1a2 (AID 410; calls by dose curve; note: potency is the fitted concentration of half-maximal effect); details: recombinant CYP1A2, luciferin-ME demethylation, luminescence
Procedure, shortened: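 Read-out is luminescence from luciferin produced by CYP1A2 demethylation of Luciferin-ME (100uM, at Km). Detection reagent stopped the 60 min NADPH-dependent reaction; signals were normalized to 57 uM furafylline.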

Chains of the proteins cited; added tags and fusions are not shown. Lines headed by an entry give the natural chain unless they say otherwise; changes in a name come on top.
UniProt P05177, whole entry, looked up: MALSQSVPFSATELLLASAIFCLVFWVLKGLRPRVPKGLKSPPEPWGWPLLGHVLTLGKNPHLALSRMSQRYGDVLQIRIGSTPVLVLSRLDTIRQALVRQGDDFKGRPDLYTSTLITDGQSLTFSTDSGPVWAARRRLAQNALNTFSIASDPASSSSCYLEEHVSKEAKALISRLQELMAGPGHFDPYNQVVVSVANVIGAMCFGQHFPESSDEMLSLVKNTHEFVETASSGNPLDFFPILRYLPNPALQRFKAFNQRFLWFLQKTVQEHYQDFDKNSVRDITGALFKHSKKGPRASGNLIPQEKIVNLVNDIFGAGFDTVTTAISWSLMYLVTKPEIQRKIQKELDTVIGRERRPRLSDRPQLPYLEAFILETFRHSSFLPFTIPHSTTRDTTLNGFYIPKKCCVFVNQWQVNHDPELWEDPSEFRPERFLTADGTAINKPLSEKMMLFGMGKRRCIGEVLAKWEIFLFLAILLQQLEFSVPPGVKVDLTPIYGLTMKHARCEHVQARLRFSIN
UniProt P33261, whole entry, looked up: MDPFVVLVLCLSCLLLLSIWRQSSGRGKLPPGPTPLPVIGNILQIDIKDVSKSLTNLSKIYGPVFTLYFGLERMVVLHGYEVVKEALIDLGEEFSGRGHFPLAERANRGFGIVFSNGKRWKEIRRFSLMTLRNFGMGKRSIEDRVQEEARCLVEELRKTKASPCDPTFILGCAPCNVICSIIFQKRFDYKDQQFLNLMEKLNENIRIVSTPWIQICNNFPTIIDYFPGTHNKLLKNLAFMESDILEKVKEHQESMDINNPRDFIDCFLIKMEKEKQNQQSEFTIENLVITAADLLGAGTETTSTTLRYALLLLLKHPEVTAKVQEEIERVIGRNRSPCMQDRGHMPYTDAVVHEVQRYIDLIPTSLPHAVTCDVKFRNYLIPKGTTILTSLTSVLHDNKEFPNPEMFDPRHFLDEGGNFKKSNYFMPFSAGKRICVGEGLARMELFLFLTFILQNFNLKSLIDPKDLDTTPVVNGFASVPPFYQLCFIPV
UniProt P27695, whole entry, looked up: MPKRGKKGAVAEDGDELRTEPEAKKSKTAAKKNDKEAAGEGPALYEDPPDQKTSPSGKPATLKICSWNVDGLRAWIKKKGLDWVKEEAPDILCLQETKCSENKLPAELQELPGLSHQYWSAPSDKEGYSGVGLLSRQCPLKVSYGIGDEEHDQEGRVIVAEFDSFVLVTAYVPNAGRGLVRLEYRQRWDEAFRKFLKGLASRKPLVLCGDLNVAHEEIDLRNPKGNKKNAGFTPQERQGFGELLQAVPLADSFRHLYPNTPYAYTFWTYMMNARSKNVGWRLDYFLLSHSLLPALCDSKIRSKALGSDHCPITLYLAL
UniProt P21728, whole entry, looked up: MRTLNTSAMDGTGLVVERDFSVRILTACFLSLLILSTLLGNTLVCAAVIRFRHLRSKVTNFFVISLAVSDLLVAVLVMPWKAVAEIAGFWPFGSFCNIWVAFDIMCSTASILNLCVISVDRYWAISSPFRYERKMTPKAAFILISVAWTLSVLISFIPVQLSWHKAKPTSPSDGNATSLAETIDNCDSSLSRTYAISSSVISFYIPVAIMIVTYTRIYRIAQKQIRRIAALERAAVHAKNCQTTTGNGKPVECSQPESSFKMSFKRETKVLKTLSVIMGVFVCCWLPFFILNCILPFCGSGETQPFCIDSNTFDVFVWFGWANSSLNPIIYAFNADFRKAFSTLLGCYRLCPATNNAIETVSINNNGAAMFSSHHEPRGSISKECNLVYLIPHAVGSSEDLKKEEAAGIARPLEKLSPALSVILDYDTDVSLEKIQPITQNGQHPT
UniProt Q12809: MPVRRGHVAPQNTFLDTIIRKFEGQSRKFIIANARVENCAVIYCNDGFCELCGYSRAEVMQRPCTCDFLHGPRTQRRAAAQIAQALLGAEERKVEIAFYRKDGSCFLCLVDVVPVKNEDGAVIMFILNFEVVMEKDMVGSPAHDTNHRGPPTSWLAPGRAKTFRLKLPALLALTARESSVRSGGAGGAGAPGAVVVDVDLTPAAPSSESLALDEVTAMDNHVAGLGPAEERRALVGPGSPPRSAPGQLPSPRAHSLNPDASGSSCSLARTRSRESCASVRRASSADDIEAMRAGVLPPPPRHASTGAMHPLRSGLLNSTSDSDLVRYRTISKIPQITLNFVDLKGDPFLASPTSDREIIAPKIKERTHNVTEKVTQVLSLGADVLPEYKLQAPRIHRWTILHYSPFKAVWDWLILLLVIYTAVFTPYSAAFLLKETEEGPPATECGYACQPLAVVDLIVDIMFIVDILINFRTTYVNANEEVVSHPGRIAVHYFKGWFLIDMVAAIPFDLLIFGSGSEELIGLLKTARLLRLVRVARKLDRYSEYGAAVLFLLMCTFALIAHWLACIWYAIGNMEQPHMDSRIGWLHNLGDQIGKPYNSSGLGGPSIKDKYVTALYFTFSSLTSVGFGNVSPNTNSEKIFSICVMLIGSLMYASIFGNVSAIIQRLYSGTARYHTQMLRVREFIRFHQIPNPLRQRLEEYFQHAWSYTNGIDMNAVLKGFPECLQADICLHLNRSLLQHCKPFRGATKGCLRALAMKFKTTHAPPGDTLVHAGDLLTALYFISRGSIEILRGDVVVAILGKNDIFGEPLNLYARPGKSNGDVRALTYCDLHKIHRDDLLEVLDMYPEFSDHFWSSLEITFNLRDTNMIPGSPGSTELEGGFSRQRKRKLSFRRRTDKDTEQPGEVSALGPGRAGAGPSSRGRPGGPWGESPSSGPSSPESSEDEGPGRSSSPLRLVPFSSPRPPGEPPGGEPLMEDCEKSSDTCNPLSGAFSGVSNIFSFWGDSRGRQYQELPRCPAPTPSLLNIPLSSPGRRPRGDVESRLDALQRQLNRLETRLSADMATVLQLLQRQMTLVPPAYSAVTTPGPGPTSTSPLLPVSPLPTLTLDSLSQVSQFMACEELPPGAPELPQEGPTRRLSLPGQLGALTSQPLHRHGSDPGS
UniProt P11712, whole entry, looked up: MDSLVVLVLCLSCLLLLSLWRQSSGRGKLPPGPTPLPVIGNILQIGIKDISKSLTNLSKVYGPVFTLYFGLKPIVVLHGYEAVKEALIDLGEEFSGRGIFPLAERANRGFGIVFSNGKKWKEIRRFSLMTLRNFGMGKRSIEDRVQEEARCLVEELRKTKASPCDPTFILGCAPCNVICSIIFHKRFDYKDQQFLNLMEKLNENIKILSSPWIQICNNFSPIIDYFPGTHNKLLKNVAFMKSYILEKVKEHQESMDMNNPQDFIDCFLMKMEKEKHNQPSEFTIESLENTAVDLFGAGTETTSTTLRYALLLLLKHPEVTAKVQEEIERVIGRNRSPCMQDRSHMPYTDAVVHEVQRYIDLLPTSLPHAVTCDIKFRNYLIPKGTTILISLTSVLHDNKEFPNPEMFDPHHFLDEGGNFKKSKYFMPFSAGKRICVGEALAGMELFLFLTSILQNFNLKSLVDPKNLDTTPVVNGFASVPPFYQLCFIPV

[2] = target: Cytochrome P450 2C19 (Homo sapiens) (UniProt P33261); experiment: qHTS Assay for Inhibitors and Substrates of Cytochrome P450 2C19 (AID 899); details: recombinant CYP2C19, luciferin-H EGE luminescence; note: potency is the fitted concentration of half-maximal effect; nearly all actives have a fitted effect of over 60% in size
[3] = target: Endonuclease 4 (Escherichia coli (strain K12)) (UniProt P0A6C1); experiment: Counterscreen for APE1 Inhibitors: qHTS Assay for Inhibitors of Endonuclease IV (AID 2565);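 note: plate controls were uninhibited enzyme wells for no effect and no enzyme buffer wells for full effect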; details: E. coli Endo IV, fluorogenic AP-site DNA cleavage; at 57.1 µM (top of the series)
Procedure, shortened: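 The reaction buffer contained 50 mM Tris-HCl pH 7.5, 50 mM NaCl, 2 mM MgCl2, 1 mM DTT and 0.01% Tween-20. Incision of a 50 nM fluorophore/quencher THF substrate by 2 nM enzyme was measured kinetically.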

[4] = target: DNA repair nuclease/redox regulator APEX1 (Homo sapiens) (UniProt P27695); experiment: Confirmation qHTS Assay for Inhibitors of the Human Apurinic/apyrimidinic Endonuclease 1 (APE1) (AID 2572); details: purified APE1, fluorogenic abasic-site DNA cleavage; note: potency is the fitted concentration of half-maximal effect; nearly all actives have a fitted effect of over 30% in size
Text: The apurinic/apyrimidinic endonuclease APE1 is the primary mammalian enzyme responsible for the removal of abasic (or AP) sites in DNA and functions centrally in the base excision DNA repair (BER) pathway. […] Thus, targeting APE1 could improve the efficacy of current treatment paradigms by promoting selective sensitization or protection of diseased and normal cells, respectively.
Inhibition of APE1 activity was screened by utilizing double-stranded short substrate containing tetrahydrofuran (THF) abasic site labeled with rhodamine-type fluorophore (TAMRA) at the 5'-end and with non-fluorescent Black Hole Quencher-2 (BHQ-2) at the opposing 3'-end. An increase in the fluorescence intensity due to incision of the abasic site by APE1 was used to measure the enzyme activity.
Assay Provider: David M. Wilson, III, National Institute on Aging, NIH
Screening Center PI: Austin, C.P.
Screening Center: NIH Chemical Genomics Center [NCGC]
1. […]
Three uL of enzyme were dispensed to 1536-well Greiner black solid bottom plates. […] The plates were immediately transferred into ViewLux High-throughput CCD imager (Perkin-Elmer) in order to measure the reaction progress in kinetic mode (three reads every 60 seconds) using 525 nm excitation and 598 nm emission fluorescence protocol. The fluorescence intensity difference between the third and the first time points was used to compute reaction progress.

[5] = target: D(1A) dopamine receptor (Homo sapiens) (UniProt P21728); experiment: HTS Assay for Allosteric Agonists of the Human D1 Dopamine Receptor: Primary Screen for Agonists (AID 488981); details: Inducible HEK293 T-REx D1 cells, calcium-flux fluorescence, 180 s kinetic; at 41.8 µM (top of the series); note: 0% is about no effect
Procedure, shortened: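 Calcium flux in an inducible, force-coupled HEK293 Trex D1 line (overnight at 30 C): agonist mode is the 180 s kinetic read after compound; potentiator mode is the following 180 s read after dopamine at EC20.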

[6] = HTS Assay for Allosteric Antagonists of the Human D2 Dopamine Receptor: Hit Validation in HTRF (AID 624455); details: Cells stably expressing D1 dopamine receptor, inhibition mode;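 note: stable D1 dopamine receptor cell line scored for blocking the D1 response; potency is the fitted concentration of half-maximal effect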
Procedure, shortened: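 Validation of hits used D1 receptor stably expressed in cells with HTRF detection of response inhibition; origin screen measured calcium flux following EC80 dopamine in a force-coupled, inducible Hek293 Trex D2 cell line.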

[7] = target: Voltage-gated inwardly rectifying potassium channel KCNH2 (Homo sapiens) (UniProt Q12809); experiment: qHTS Assay for Small Molecule Inhibitors of the Human hERG Channel Activity (AID 588834); details: U2OS BacMam hERG, FluxOR thallium flux fluorescence;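 note: potency is the fitted concentration of half-maximal effect; lower thallium flux fluorescence means stronger hERG block; nearly all actives have a fitted effect of over 50% in size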
[8] = target: Cytochrome P450 2C9 (Homo sapiens) (UniProt P11712); experiment: qHTS for inhibitors of CYP2C9 against the NCATS DSHEA and TCM libraries (AID 1919973); details: recombinant CYP2C9 enzyme activity, luminescence; note: potency is the fitted concentration of half-maximal effect
Procedure, shortened: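 Isoform-specific enzyme and substrate levels; enzyme-free wells as background. Reaction: 1x NADPH regenerating system, 30-45 min, room temperature, shielded from light; luminescent detection reagent added, 30 min.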

For `COc1cc(N[C@@H](C)CCCN)c2ncccc2c1`, the Potency [1] was active: 200 nM and the Potency [2] was active: 3980 nM.

With `O=c1c(O)c(-c2cc(O)c(O)c(O)c2)oc2cc(O)cc(O)c12` the activity change, negative = inhibition [3] was inactive: -4.93% and the Potency [4] was active: 7080 nM.

With `CNCC(O)c1ccc(O)c(O)c1` (centres undefined) the activation [5] was inactive: 29.5% and the Potency [6] was active: 326 nM.

For `O=C1Cc2cc(CCN3CCN(c4nsc5ccccc45)CC3)c(Cl)cc2N1`, the Potency [7] was active: 1410 nM.

For `CNC[C@H](O)c1ccc(O)c(O)c1`, the Potency [6] was active: 164 nM.

In the case of `O=c1c(O)c(-c2ccc(O)c(O)c2)oc2cc(O)cc(O)c12`, the Potency [8] is reported as active: 4470 nM.
